pKi: −log10 of the molar value.
Assays:
Histamine H3 receptor [1] = target: T1, Histamine H3 receptor (Rattus norvegicus, UniProt Q9QYN8); assay: Binding affinity towards rat cortical H3 receptor
Histamine H3 receptor [2] = target: T1, Histamine H3 receptor; assay: Affinity towards rat cortical H3 receptor using radioligand binding assay; settings: read-out: pA2 (converted)

The chains behind the UniProt entries cited, without tags or fusion partners. Where a name states a change or a piece, a line headed by the entry shows the natural chain unless it says otherwise.
UniProt Q9QYN8: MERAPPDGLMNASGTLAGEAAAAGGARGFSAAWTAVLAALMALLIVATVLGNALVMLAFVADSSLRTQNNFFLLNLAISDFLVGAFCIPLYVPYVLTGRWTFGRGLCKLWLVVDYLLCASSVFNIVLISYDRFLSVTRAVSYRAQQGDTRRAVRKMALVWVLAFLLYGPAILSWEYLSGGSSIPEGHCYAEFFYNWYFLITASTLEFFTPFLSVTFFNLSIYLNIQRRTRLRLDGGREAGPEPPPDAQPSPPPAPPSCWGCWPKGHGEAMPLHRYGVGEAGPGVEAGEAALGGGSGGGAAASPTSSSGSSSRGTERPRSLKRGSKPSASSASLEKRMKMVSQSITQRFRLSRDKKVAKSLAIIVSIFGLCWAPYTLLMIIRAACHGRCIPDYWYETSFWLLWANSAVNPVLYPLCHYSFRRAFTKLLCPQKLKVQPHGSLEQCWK

Row | SMILES | pKi (Histamine H3 receptor [1]) | Kb (Histamine H3 receptor [2]) [nM]
1 | C[C@H]1CC[C@H](C)N1CCCOc1ccc(-c2ccc(C(=O)N3[C@@H](C)CC[C@@H]3C)cc2)cc1 | 8.38 | 
2 | C[C@H]1CC[C@H](C)N1CCCOc1ccc(-c2ccc(C(=O)N3CCOCC3)cc2)cc1 [A-349,821] |  | 1.95
